Values quoted from earlier work in patent US20240238195A1, “METHODS AND COMPOSITIONS FOR INHIBITING A NOXIOUS INSULT” (priority 2018, published 2024).

System: rats
Details: cited from earlier work

## zinc nitrate
  relative lethality (LD50 ranking): less lethal
